Ab-14 heavy chain CDR variants: yeast mating affinities

Target: peptide PDVDLGDISGINAS, taken from heptad repeat 2 (HR2) of SARS-CoV-2 spike.

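Designed CDR sequences, proposed from the first random library and measured here. Their group label is 14H_En_HC (En: ensemble of fine-tuned language models; HC: hill climbing; a sequence that several methods proposed may carry one label only). The scFvs were displayed on barcoded MATa yeast, the peptide on MATalpha yeast. Binding brings cells together so that they mate, and sequencing counts the barcode pairs among the diploids. Each replicate has its own calibration line, from reference interactions of the BCL2 family. There are six technical replicates.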

The variants keep the light chain, the linker and the frameworks of Ab-14 (scFv order VH, three GGGGS repeats, VL).
VH: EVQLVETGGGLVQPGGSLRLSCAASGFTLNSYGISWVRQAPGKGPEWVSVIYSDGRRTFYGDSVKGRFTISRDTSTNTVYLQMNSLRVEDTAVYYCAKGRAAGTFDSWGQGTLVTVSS
VL: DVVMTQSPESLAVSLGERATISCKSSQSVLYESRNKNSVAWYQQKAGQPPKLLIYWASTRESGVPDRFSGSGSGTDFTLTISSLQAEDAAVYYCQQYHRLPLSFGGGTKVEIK

Each variant is given by its three heavy chain CDRs, as the data file delimits them; those of the parent are GFTLNSYGIS, VIYSDGRRTFYGDSVK, GRAAGTFDS. Values are log10 of the apparent Kd in nM; lower means stronger binding. Where no diploid with the target was found in that replicate, the entry reads "n.d.": below detection, most likely a poor binder, though not proof of it. Empty control strains, which show no peptide, gave a signal in 1% of pairings with all heavy chain designs; the median was 2.08 and 95% of these signals were weaker than 0.84. No background was subtracted. Also given: how often the same scFv was detected with the empty control strains, with their mean in brackets. The authors' rule: three or more of the six replicates give a measured affinity, fewer mean a poor binder. Values of this round are not directly comparable with the first-round values of the same sequences. Of ten entries with the parent sequence, four were seen in most replicates (averages 0.34 to 2.37), three in one and three in none, so single entries are noisy.

CDR-H1	CDR-H2	CDR-H3	log10 Kd (nM) by replicate	signal with controls
GFNLDEYGIS	VIYADGRRTFYADSVK	GELAGTFDT	-0.98 / -0.84 / -1.35 / -1.21 / -0.66 / -0.87	0 of 18
GFDLEDYGIS	VIYADGRRTAYSDSVK	GEAAGTFDV	n.d. / n.d. / n.d. / n.d. / n.d. / 3.09	0 of 18
GFDLNEYGIS	VIYADGRRQFYADSVK	GNQAGTFDV	0.12 / -0.15 / 0.14 / -0.63 / -0.55 / -0.40	0 of 18
GFDLDEYGIS	VIYADGMRTFYADSVK	GNIAGTFDL	-0.80 / -1.05 / -0.52 / -1.01 / -1.10 / -0.47	0 of 18
GFDLNEYGIS	VIYADGFRTFYTDSVK	GEVAGTFDE	-0.16 / -0.32 / -0.51 / -0.45 / -0.40 / -0.32	1 of 18 (2.27)
GFDLNEYGIS	VIYADGRRTFYSDSVK	GNQAGTFDV	-0.15 / -0.67 / -0.99 / -0.69 / 0.10 / 0.58	0 of 18
GFDLNEYGIS	VIYADGRRSFYADSVK	GQLAGTFDA	-0.71 / -0.50 / -0.49 / -0.74 / -0.85 / -0.74	0 of 18
GFDLNEYGIS	VIYADGMRTFYSDSVK	GTNGGTFDI	1.57 / 0.20 / 0.49 / -0.26 / -0.19 / -0.08	0 of 18
GFDLNEYGIS	VIYADGSRTFYADSVK	GEAAGTFDV	-0.03 / -0.45 / -0.59 / -0.36 / -0.53 / -0.06	0 of 18
GFDLNEYGIS	VIYADGRRTFYADSVK	GANGGTFDV	0.05 / -0.65 / -0.15 / -0.34 / -0.60 / -0.23	0 of 18
GFGLDEYGIS	VIYADGRRTFYADSVK	GKNAGTFDM	-0.39 / -0.30 / -0.36 / -0.16 / -0.65 / -0.23	0 of 18
GFDLNEYGIS	VIYADGLRTYYADSVK	GQNAGTFDQ	-0.52 / -0.60 / -0.54 / -0.74 / -0.91 / -0.37	1 of 18 (2.41)
GFDLNEYGIS	VIYADGRRTFYTDSVK	GAGAGTFDQ	-0.26 / -0.48 / 0.14 / -0.54 / 0.08 / -0.18	0 of 18
GFDLNEYGIS	VIYADGRRTFYTDSVK	GENAGTFDI	-0.57 / -0.80 / -0.45 / -0.69 / -0.48 / -0.38	0 of 18
GFDLNEYGIS	VIYADGRRTFYSDSVK	GEAAGTFVI	n.d. / n.d. / n.d. / n.d. / n.d. / n.d.	0 of 18
GFDLNEYGIS	VIYADGRRTAYVDSVK	GGNAGFFDI	n.d. / n.d. / n.d. / 2.20 / n.d. / n.d.	1 of 18 (1.92)
GFDLNEYGIS	VIYADGIRTAYADDVK	GNAAGTFDS	-0.58 / -0.54 / -0.48 / -0.72 / -0.85 / -0.37	1 of 18 (2.35)
GFDLNEYGIS	VIYADGRRTFYADNVK	GEVAGTFTV	-0.22 / -0.71 / -0.79 / -1.12 / -0.81 / -0.79	0 of 18
GFDLNEYGIS	VIYADGRRTAYADSVK	GEIAGTFDQ	-0.39 / -0.70 / -0.61 / -0.53 / -0.70 / -0.50	0 of 18
GFDLNEYGIS	VIYADGRRTAYTDSVK	GANAGTFDS	-0.32 / -0.81 / -0.97 / -0.87 / -1.13 / -0.53	0 of 18
GFDLNEYGIS	VIYADGVRTFYSDSVK	GEVAGTFVS	-0.32 / -0.25 / -0.43 / -0.60 / -0.43 / -0.35	2 of 18 (2.39)
GFNLNEYGIS	VIYADGRRTFYADSVK	GQVAGTFDI	-0.34 / -0.48 / -0.58 / -0.70 / -0.79 / -0.57	1 of 18 (1.97)
GFDLNEYGIS	VIYADGRRTAYTDSVK	GNNAGTFDM	0.61 / 0.17 / -0.56 / -0.79 / -0.31 / -0.47	0 of 18
GFDLNEYGIS	VIYADGMRTFYTDSVK	GEVAGTFDK	-0.30 / -0.22 / -0.61 / -0.49 / -0.28 / -0.40	1 of 18 (3.25)
GFDLNEYGIS	VIYADGVRTFYADSVK	GQNAGTFDL	-0.64 / -1.21 / -1.28 / -0.93 / -0.85 / -0.57	0 of 18
GFDLEEYGIS	VIYADGRRTFYSDSVK	GEQAGTFDV	-0.88 / -0.51 / -1.08 / -1.15 / -0.71 / -0.42	0 of 18
GFNLDEYGIS	VIYADGRRTAYADSVK	GQVAGTFLS	-0.53 / -0.31 / -0.68 / -0.05 / -0.61 / -0.12	0 of 18
GFDLNEYGIS	VIYADGRRTAYIDSVK	GEVAGTFDT	-0.14 / -0.28 / -0.51 / -0.53 / -0.49 / -0.16	0 of 18
GFNLDEYGIS	VIYADGRRTFYADSVK	GQVAGTFDL	-0.01 / 0.05 / -0.38 / -0.28 / -0.20 / -0.24	0 of 18
GFDINEYGIS	VIYADGMRTAYADSVK	GEAAGTFDV	-0.29 / -0.13 / -0.38 / -0.55 / -0.29 / -0.10	0 of 18
GFDLEDYGIS	VIYADGRRTAYADSVK	GETAGTFDL	0.43 / -0.16 / 0.01 / -0.13 / -0.39 / 0.63	0 of 18
GFDLNEYGIS	VIYADGLRTSYADSVK	GELAGTFDQ	-0.69 / -1.15 / -0.88 / -0.99 / -0.90 / -0.58	0 of 18
GFDLNEYGIS	VIYADGRRTSYKDSVK	GNAAGTFDV	-0.09 / -0.17 / -0.27 / -0.38 / 0.39 / -0.20	0 of 18
GFDLNEYGIS	VIYADGRRTAYSDSVK	GEIAGTFDS	-0.42 / -0.38 / -0.53 / -0.79 / -0.31 / -0.24	0 of 18
GFDLDEYGIS	VIYADGRRTFYIDSVK	GETAGTFDI	-0.35 / -0.41 / -0.30 / -0.40 / -0.34 / -0.26	1 of 18 (2.17)
GFGLDEYGIS	VIYADGRRTFYADSVK	GENAGTFIM	n.d. / n.d. / n.d. / n.d. / n.d. / n.d.	0 of 18
GFNLNEYGIS	VIYADGRRTFYADSVK	GEIAGTFDF	-0.30 / 0.55 / -0.22 / -0.80 / -0.50 / 0.08	0 of 18
GFDLNEYGIS	VIYADGVRTFYSDSVK	GQSAGTFDA	0.01 / 0.00 / -0.17 / -0.03 / 0.10 / -0.05	1 of 18 (2.93)

For reference, 2 entries of the list once more:

CDR-H1	CDR-H2	CDR-H3	log10 Kd (nM) by replicate	signal with controls
GFDLNEYGIS	VIYADGRRTAYADSVK	GEIAGTFDQ	-0.39 / -0.70 / -0.61 / -0.53 / -0.70 / -0.50	0 of 18
GFDLNEYGIS	VIYADGRRTAYVDSVK	GGNAGFFDI	n.d. / n.d. / n.d. / 2.20 / n.d. / n.d.	1 of 18 (1.92)

From the AlphaSeq antibody data of Li et al. 2023 (doi:10.1038/s41467-023-39022-2), copy in the FLAb collection.